According to PMC11808136, “Screening and identification of host signaling pathways for alleviating influenza-induced production of pro-inflammatory cytokines, IP-10, IL-8, and MCP-1, using a U937 cell-based influenza model” (Frontiers in Microbiology, 2025):
pIC50: −log10 of the molar value.

Chains of the proteins cited; added tags and fusions are not shown. Lines headed by an entry give the natural chain unless they say otherwise; changes in a name come on top.
UniProt O60674: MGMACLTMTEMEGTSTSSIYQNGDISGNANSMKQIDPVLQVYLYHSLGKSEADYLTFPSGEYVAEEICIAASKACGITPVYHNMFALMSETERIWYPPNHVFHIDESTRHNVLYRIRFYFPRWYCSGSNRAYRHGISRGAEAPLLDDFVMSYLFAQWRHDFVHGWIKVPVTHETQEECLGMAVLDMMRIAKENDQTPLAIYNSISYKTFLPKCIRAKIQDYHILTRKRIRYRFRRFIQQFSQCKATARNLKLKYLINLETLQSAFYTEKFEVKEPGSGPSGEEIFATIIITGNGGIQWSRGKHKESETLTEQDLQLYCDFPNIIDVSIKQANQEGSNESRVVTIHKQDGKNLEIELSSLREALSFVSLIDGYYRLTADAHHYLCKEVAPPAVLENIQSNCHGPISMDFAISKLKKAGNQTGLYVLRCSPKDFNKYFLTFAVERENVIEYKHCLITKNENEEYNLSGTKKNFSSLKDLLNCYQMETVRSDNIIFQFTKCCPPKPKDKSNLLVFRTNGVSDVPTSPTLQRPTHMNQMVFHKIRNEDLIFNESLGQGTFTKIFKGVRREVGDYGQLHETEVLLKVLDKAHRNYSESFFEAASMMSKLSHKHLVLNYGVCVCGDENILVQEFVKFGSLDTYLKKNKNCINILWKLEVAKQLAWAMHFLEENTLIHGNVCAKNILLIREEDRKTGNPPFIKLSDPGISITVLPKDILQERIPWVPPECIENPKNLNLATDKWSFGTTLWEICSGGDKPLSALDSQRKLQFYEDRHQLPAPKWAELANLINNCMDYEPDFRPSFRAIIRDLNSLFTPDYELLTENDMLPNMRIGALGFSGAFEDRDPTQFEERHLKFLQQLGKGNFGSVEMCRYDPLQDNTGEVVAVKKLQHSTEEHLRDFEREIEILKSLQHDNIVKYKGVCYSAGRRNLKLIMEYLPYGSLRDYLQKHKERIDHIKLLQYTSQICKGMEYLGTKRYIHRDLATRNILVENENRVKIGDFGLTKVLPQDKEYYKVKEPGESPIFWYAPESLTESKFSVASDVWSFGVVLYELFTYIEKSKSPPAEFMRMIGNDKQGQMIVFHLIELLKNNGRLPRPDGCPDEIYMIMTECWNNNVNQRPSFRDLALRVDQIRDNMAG

Molecular target: T1, JAK2 (Homo sapiens, UniProt O60674)
T1 construct: purchased KinaseProfiler (Eurofin, Brussels, Belgium)
Assay: Cell-free kinase activity assay, JAK2
Type: biochemical

`CCS(=O)(=O)N1CC(CC#N)(n2cc(-c3ncnc4[nH]ccc34)cn2)C1` [Baricitinib] gave a pIC50 of 9.00.
